The list shows a part of the results, in another mix than the full data. Calls of active or inactive are those of the source. Rule as the data show it: active = activity change below about -80%; inconclusive = between about -30% and that limit; inactive = weaker than that.
% is scaled to controls: 0 for no effect and ±100 for the full control effect.

The assay can be described thus: Small Molecules that selectively kill Giardia lamblia: qHTS.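 Also: parasites exposed to compound for two days anaerobically before the ATP read.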 Conditions: Giardia lamblia trophozoite viability; at 7.66 µM; stronger effect = lower value. The text has this: Giardia lamblia is a human pathogen afflicting impoverished nations, and the most common cause of outbreaks of diarrhea in the United States. Giardia has been classified by the CDC as a category B bioterrorism organism. The favored anti giardiasis drugs in the US are metronidazole or tinidazole, compounds that have undesirable side effects. Moreover, increasing resistance to drug regimes and recurrence are a concern. It is thus clear that alternative drug treatments are needed.
In a collaboration between the University of Maryland, College Park and the NIH Chemical Genomics Center, a bioluminescence Giardia viability assay based on the trophozoites' ATP content was developed. This assay is suitable for high throughput screening, and miniaturized the assay for compound screening in 1536-well plates. The goal of the project is to screen the Molecular Libraries Small Molecule Repository (MLSMR) for compounds that selectively kill Giardia trophozoites.
NIH Chemical Genomics Center [NCGC]
NIH Molecular Libraries Probe Centers Network [MLPCN]
Assay Submitter (PI): Osnat Herzberg, University of Maryland, College Park, MD.
1. Dispense 2 ul/well media
2. Dispense 23 nl/well compounds
3. Dispense 4 ul/well Giardia trophozoites at a concentration of 100 cells/well
4. Incubate 48 hrs at 37 deg C anaerobically
5. Dispense 4 ul/well ATPLite 1-Step Luminescence assay kit
6. Incubate 15-30 min at room temperature
7. Read luminescence signal on ViewLux plate reader
On the technique in general: qHTS replaces the single test concentration by a dilution series.
Take `Cc1ccc(OCC(=O)OC2CN3CCC2CC3)cc1` (centres undefined): the activity change was inactive: 0.285%.
As to `CC1CCC(C(C)C)C(OP(=O)(Nc2ccccn2)c2ccccc2)C1` (centres undefined), the activity change was inactive: 11.5%.
On to `Cc1ccc(C(=O)OC2CN3CCC2CC3)cc1` (centres undefined), for which the activity change is inactive: 8.56%.
As for `Cc1nn(-c2ccccc2)c2c1P(=O)(N1CCOCC1)N(C)C(c1ccccc1)=N2` (centres undefined), the activity change was inactive: -9.21%.
The figure for `CCCC1OP(=O)(Nc2ccccc2)OCC1CC` (centres undefined) is inactive: -4.18%; for `O=C(/C=C/c1ccccc1)OC1CN2CCC1CC2` (centres undefined) it is inactive: 13.1%; for `CN(C)C1(CNC(=O)c2ccc(S(C)(=O)=O)cc2)CCCCC1` it is inactive: 7.79%.
The figure for `COc1ccccc1CNC(=O)COC(=O)C(O)(c1ccccc1)c1ccccc1` is inactive: -21.2%; for `CC1(CBr)Cn2c(nc3ccccc3c2=O)S1` (centres undefined) it is inactive: 5.64%; for `CC(C)/C=N\N=C(\N)N[N+](=O)[O-]` it is inactive: 1.95%.
In the case of `CN(C(=O)Cc1ccc(Cl)c(Cl)c1)[C@@H]1CCCC[C@H]1N1CCCC1`, the activity change was inactive: -2.48%.
In the case of `CN(CCCl)Cc1cc(Cl)c(NC2=NCCN2)c(Cl)c1` it was inactive: -18.2%; in that of `CCOP(=O)(Nc1ccc(C)cn1)OCC`, inactive: -13.6%.
The figure for `CCOP(=O)(NC(=NC(C)c1ccccc1)NC(C)c1ccccc1)OCC` (centres undefined) is inactive: -29.4%; for `O=P1(Nc2ccccn2)COc2ccccc2OC1` it is inactive: -4.09%.
In the case of `CCC1=CC2Cc3nc4ccc(Cl)cc4c(N)c3C(C1)C2` (centres undefined), the activity change is inactive: 4.43%.
Consider `CC(C)(C)C(=O)NC(Sc1ncccn1)C(Cl)(Cl)Cl` (centres undefined), for which the activity change is inactive: -15.9%.
Turning to `Clc1n[nH]nc1-c1nn[nH][15n]1`, the activity change is inactive: 5.23%.
In the case of `CCOC(=O)c1ccc(NC(=O)C(C)(CCl)SC)cc1` (centres undefined) it was inactive: 25.1%.
In the case of `O=C(OC1CN2CCC1CC2)c1cccc([N+](=O)[O-])c1` (centres undefined) it was inactive: 2.47%.
The figure for `CCOP(=O)(Nc1cccc2cccnc12)OCC` is inactive: 14.1%; for `CCC(C)N(CC(C)C)C(=S)SC(NC(C)=O)C(Cl)(Cl)Cl` (centres undefined) it is inactive: -3.55%; for `COP1(=S)c2c(C)nn(CCC#N)c2N=C(c2ccc(F)cc2)N1C` (centres undefined) it is inactive: -9.5%.
For the compound `O=C(Nc1ccncc1[N+](=O)[O-])c1ccc([N+](=O)[O-])cc1[N+](=O)[O-]`, the activity change was active: -98.7%.
In the case of `O=C(COc1ccccc1)OC1CN2CCC1CC2` (centres undefined) it was inactive: 6.24%.
The figure for `CCOC(=O)Nc1cccc([As](=O)(O)O)c1` is inactive: -28.9%; for `O=[N+]([O-])c1ccc(Nc2ccc(Oc3ccc([N+](=O)[O-])cc3[N+](=O)[O-])cc2)c([N+](=O)[O-])c1` it is inactive: -28.7%.
Consider `O=P(Nc1ccccn1)(c1cccc2ccccc12)c1cccc2ccccc12`, for which the activity change was inactive: -15.8%.
In the case of `CC1CCNP(=O)(N(CCCl)CCCl)O1` (centres undefined) it was inactive: -4.45%; in that of `CCOC(=O)Nc1ccc([As](=O)(O)O)c(O)c1`, inactive: -10.9%; in that of `Cc1cc(SC(NC(=O)c2ccccc2)C(Cl)(Cl)Cl)nc(C(C)C)n1` (centres undefined), inactive: -11.4%.
Consider `CCCCOc1ccc(C(=O)NCC2(N3CCCCC3)CCCCC2)cc1OC`, for which the activity change is inactive: -21%.
In the case of `CC(C)c1ccc(OP(=O)(Nc2ccccn2)Oc2ccccc2F)cc1` (centres undefined) it was inactive: 20.7%; in that of `COC(=O)C1(C)COP(=O)(N2CCCCCC2)OC1` (centres undefined), inactive: -6.45%.
Consider `ClCCSc1nnc(-c2cccnc2)o1`, for which the activity change is inactive: -13.9%.
Consider `O=[N+]([O-])c1cc([N+](=O)[O-])c(-c2ccn[nH]2)s1`, for which the activity change is active: -97%.
In the case of `O=C(OC1CN2CCC1CC2)c1cccc2[nH]cnc12` (centres undefined), the activity change was inactive: 15%.
As to `CCN(CC)C(=S)SC(NC=O)C(Cl)(Cl)Cl` (centres undefined), the activity change is inactive: 27.6%.
In the case of `CC(C)NC(=O)NP(=O)(Oc1ccccc1)Oc1ccccc1` it was inactive: 18.7%.
In the case of `COc1cc(C(=O)NCC2(N3CCOCC3)CCCCC2)ccc1OCC(C)C` it was inactive: -27%; in that of `O=[N+]([O-])c1ccc(-c2cc([N+](=O)[O-])c(O)c([N+](=O)[O-])c2)cc1`, inactive: -6.05%; in that of `C[As](=O)(O)c1cccc(C(=O)O)c1`, inactive: 0.0246%.
In the case of `O=[As](O)(c1ccc(O)cc1)c1ccccc1O` it was inactive: -23.9%; in that of `Cc1ccc2nc3c(c(C)c2c1)CC(C(Cl)Cl)S3` (centres undefined), inactive: 19.6%; in that of `Cc1ccc(OP(=O)(Nc2ccc([N+](=O)[O-])cn2)Oc2ccc(C)cc2)cc1`, inactive: 20.1%.
Take `COc1ccc(N/C(=N/P(=O)(N2CCOCC2)N2CCOCC2)N2CCOCC2)cc1`: the activity change was inactive: -16.4%.
In the case of `O=[N+]([O-])c1cc(Oc2ccc([N+](=O)[O-])cc2C(F)(F)F)cc([N+](=O)[O-])c1` it was inactive: 2.54%; in that of `Cc1cc(=O)[nH]c(N[N+](=O)[O-])n1`, inactive: -1.8%.
In the case of `O=C(OC1CN2CCC1CC2)C12CC3CC(CC(C3)C1)C2` (centres undefined) it was inactive: 19.2%; in that of `Cc1c2c(nc3ccccc13)SC(C(Cl)Cl)C2` (centres undefined), inactive: -29.7%.
The figure for `COc1cc(I)ccc1[As](=O)(O)O` is active: -81.4%.
Regarding `COc1ccc2nc(NP(=O)(c3ccccc3)c3ccccc3)sc2c1`, the activity change was inactive: -9.02%.
In the case of `O=P1(N(CCCl)CCCl)OCCCN1CCCl` (centres undefined) it was inactive: -3.23%; in that of `O=P1(N(CCCl)CCCl)Nc2ccccc2N1`, inactive: -4.37%.

These data come from PubChem BioAssay AID540267 (National Center for Advancing Translational Sciences (NCATS), 2011).
